The series has as its system NCI-28H cells. In words: Cytotoxicity assay (MTS) of NCI-28H cells: carboplatin, mitomycin, gemcitabine, talc, talc bound to these drugs (Example 22). The note with it: single-agents.

With `CO[C@@]12[C@H](COC(N)=O)C3=C(C(=O)C(C)=C(N)C3=O)N1C[C@@H]1N[C@@H]12` [mitomycin, Mitomycin], the “cytotoxic effect on NCI-28H cells (in words)” value was “clear cytotoxic effect”.

The values above are taken from patent US10925852B2, “Talc-bound compositions and uses thereof” (THE TRUSTEES OF COLUMBIA UNIVERSITY IN THE CITY OF NEW YORK, priority 2015, dated 2021).
